Here are results for 1 molecule from US9550792B2, “Polycyclic substituted pyrazole kinase activity inhibitors and use thereof” (priority 2013, dated 2017).

By UniProt entry, the sequences of proteins in these tests, tags left out. Residues count along the entry.
UniProt P50750, 19-315 limits assumed: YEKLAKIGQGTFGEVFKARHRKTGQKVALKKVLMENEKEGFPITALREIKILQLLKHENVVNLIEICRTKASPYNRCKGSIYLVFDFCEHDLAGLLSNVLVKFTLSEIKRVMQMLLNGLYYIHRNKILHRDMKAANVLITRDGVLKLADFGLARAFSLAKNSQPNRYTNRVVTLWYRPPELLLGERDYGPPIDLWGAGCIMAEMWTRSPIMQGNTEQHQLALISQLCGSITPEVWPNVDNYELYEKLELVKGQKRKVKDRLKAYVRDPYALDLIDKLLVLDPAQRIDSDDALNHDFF

For the assay, the target named is CDK9/cyclin K (Homo sapiens, UniProt P50750). The assay can be described thus: Kinase IC50, 33P labeled isotope method. It is filed as biochemical.

A word on the IC50: it is the concentration that inhibits the measured activity by half. In the case of `CN1CCN(Cc2ccc(NC(=O)c3n[nH]cc3Nc3ncnc4[nH]ccc34)cc2)CC1` [Compound I-11, 4-(4-(7H-pyrrolo[2,3-d]pyrimidinyl)amino)-N-(4-((4-methyl-1-piperazinyl)methyl)phenyl)-1H-3-pyrazolecarboxamide], the midpoint of inhibition, the IC50, lay at 35 nM.
